Measurements taken from US20230391864A1.

Columns and labels:
[1] = molecular target: Transmembrane TNFα on CHO/DG44-tm TNFα cells; experiment: cell-based or functional assay
Canine TNFα (canine) = Canine TNFα (canine) (UniProt P51742); experiment: SPR (Biacore T200), antibody captured via Fc, TNFα as analyte, 25 C
Macaque TNFα (macaque) = experiment: as above
Porcine TNFα (porcine) = Porcine TNFα (porcine) (UniProt P23563); experiment: as above
Rabbit TNFα (rabbit) = Rabbit TNFα (rabbit) (UniProt P04924); experiment: SPR (Biacore T200), antibody captured via Fc, TNFα as analyte, 25 C; ka and kd ND
Rat TNFα (rat) = Rat TNFα (rat) (UniProt P16599); experiment: as above

Row | ADCC EC50 (target cell lysis, PBMC effector cells, E/T 25:1) [1] [µg/mL] | ADCC Top (best-fit maximum % target cell lysis) (% target cell lysis) [1] | CDC Bottom (best-fit value, four-parameter dose-response, 5% NHSC) (% target cell lysis) [1] | CDC EC50 (target cell lysis, 5% normal human serum complement) [1] [µg/mL] | CDC LogEC50 (best-fit value, four-parameter dose-response, 5% NHSC) [1] | CDC Span (best-fit value, Top minus Bottom, 5% NHSC) (% target cell lysis) [1] | CDC Top (best-fit maximum % target cell lysis) (% target cell lysis) [1] | Kd (Canine TNFα (canine)) [nM] | Kd (Macaque TNFα (macaque)) [nM] | Kd (Porcine TNFα (porcine)) [nM] | Kd (Rabbit TNFα (rabbit)) [nM] | Kd (Rat TNFα (rat)) [nM] | CDC EC50 (as told in the text, differs from Table 15) [1] [µg/mL] | CDC EC50 (target cell lysis, 5% NHSC) [1] [µg/mL] | Substance
1 | 0.0168 | 30.3 | 3.1 | 8.41 | 0.925 log10(µg/mL) | 86.2 | 89.3 | 1.54 | 0.72 | 2.05 | 614 | 726 | – | – | Vectorized full-length adalimumab IgG expressed from pAAV.CAG.Adalimumab.IgG / AAV8.CAG.adalimumab.IgG (antibody)
2 | 0.0129 | 46.7 | – | 0.758 | -0.12 log10(µg/mL) | 92.1 | 96.7 | 1.49 | 0.772 | 2.17 | 528 | 681 | 0.44 | 0.44 | Adalimumab (commercial adalimumab, HUMIRA) (antibody)
